Source: BindingDB's records for doi:10.1016/0028-3908(95)00017-z (Merz, 1995)
Several values for one entry are separate records, joined by “and”; a condition that tells them apart may be missing. Equal entries are not always repeated.

Target: Glutamate receptor ionotropic, NMDA 1 (Rattus norvegicus, UniProt P35439)

`CC12CC3CC(C)(C1)CC(N)(C3)C2` was tested, and the Ki was 0.69 µM and 0.433 µM and 1.78 µM and 0.7 µM and 1.73 µM and 1.37 µM and 1.32 µM and 2.42 µM.
